Antibody variant affinities, Ab-14 light chain, assay B

Target peptide (SARS-CoV-2 spike, HR2 region): PDVDLGDISGINAS

Each scFv is VH, a (GGGGS)3 linker, VL, as in the parent Ab-14, and differs from it in the CDRs of the light chain only.
VH: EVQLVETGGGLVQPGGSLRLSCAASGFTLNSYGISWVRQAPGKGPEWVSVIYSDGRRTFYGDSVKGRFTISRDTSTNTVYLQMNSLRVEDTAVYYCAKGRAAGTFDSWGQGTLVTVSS
VL: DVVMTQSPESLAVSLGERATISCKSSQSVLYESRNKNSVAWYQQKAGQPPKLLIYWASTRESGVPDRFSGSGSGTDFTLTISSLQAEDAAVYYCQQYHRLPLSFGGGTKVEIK

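Designed CDR sequences, proposed from the first random library and measured here. Group labels follow the data file (Ctrl: baseline library sampled from a position-specific scoring matrix, with some repeated check sequences; En: ensemble of fine-tuned language models; GP: Gaussian process model; HC: hill climbing; Gen: genetic algorithm; Gibbs: Gibbs sampling; a sequence that several methods proposed may carry one label only). The scFvs were displayed on barcoded MATa yeast, the peptide on MATalpha yeast. The frequency of each diploid, read from paired DNA barcodes, reflects how well the two displayed proteins bind. Scores were corrected for input abundance and mapped to Kd with protein pairs of known affinity run in the same pool. The assay was run in six technical replicates.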

Each variant is given by its three light chain CDRs, as the data file delimits them; those of the parent are KSSQSVLYESRNKNSVA, WASTRES, QQYHRLPLS.
Scale: log10 of Kd in nM, estimated from mating counts; low values are strong binders.
A mean of the replicates is given; it leaves out those without a signal.
"nd" means that the variant was in the library but no mating with the target was seen in that replicate; the authors take this as a sign of poor binding, and no number exists.

{"CDR-L1": "KSGQGVLYQSRNKNSVA", "CDR-L2": "GASTRES", "CDR-L3": "QQYHRLPLS", "group": "GP_HC", "log10 Kd (nM) by replicate": "0.44 0.31 0.38 0.31 0.56 0.67", "log10 Kd (nM), mean": "0.44", "empty controls": "2/18 (2.68)"}
{"CDR-L1": "KISGYLNHESKAKNNVA", "CDR-L2": "EMVNRES", "CDR-L3": "QQYDRLPLS", "group": "En_HC", "log10 Kd (nM) by replicate": "0.36 0.37 0.46 0.01 0.17 0.61", "log10 Kd (nM), mean": "0.33", "empty controls": "0/18"}
{"CDR-L1": "KSSQSMLNESRNENSVA", "CDR-L2": "WASTRLS", "CDR-L3": "QQYHRLPLS", "group": "Ctrl", "log10 Kd (nM) by replicate": "nd nd 1.52 nd 1.18 nd", "log10 Kd (nM), mean": "1.35", "empty controls": "0/18"}
{"CDR-L1": "FMEMDFQGNSVNHNSIA", "CDR-L2": "SEEVVTR", "CDR-L3": "QHYARLPLS", "group": "En_Gibbs", "log10 Kd (nM) by replicate": "nd nd nd 0.41 nd nd", "log10 Kd (nM), mean": "0.41", "empty controls": "0/18"}
{"CDR-L1": "KLSPSVMYWMRNKNSVA", "CDR-L2": "NASTRES", "CDR-L3": "QQYHRLPLS", "group": "GP_Gibbs", "log10 Kd (nM) by replicate": "0.06 -0.25 -0.10 -0.30 -0.24 -0.02", "log10 Kd (nM), mean": "-0.14", "empty controls": "2/18 (3.02)"}
{"CDR-L1": "KSSQSTLYESRNKNSVA", "CDR-L2": "QASKRES", "CDR-L3": "VQYHRLPLV", "group": "Ctrl", "log10 Kd (nM) by replicate": "nd nd nd nd nd 2.66", "log10 Kd (nM), mean": "2.66", "empty controls": "0/18"}
{"CDR-L1": "KMEWSDLLESRNVQSVA", "CDR-L2": "QASTRES", "CDR-L3": "QQYHRLPLS", "group": "GP_Gibbs", "log10 Kd (nM) by replicate": "0.48 0.52 0.34 0.51 0.57 0.40", "log10 Kd (nM), mean": "0.47", "empty controls": "1/18 (2.45)"}
{"CDR-L1": "KLVQSTLYESRNKNSVA", "CDR-L2": "DASTRES", "CDR-L3": "QQYHRLPLS", "group": "GP_HC", "log10 Kd (nM) by replicate": "-0.13 -0.58 -0.36 -0.45 -0.40 -0.13", "log10 Kd (nM), mean": "-0.34", "empty controls": "2/18 (1.78)"}
{"CDR-L1": "KLMQSVLYESRNKNSVA", "CDR-L2": "DASTRES", "CDR-L3": "QQYHRLPLS", "group": "Ctrl+GP_Gen", "log10 Kd (nM) by replicate": "-0.30 -0.37 -0.40 -0.56 -0.46 -0.22; -0.04 0.11 0.07 -0.17 -0.28 0.05", "log10 Kd (nM), mean": "-0.21", "empty controls": "2/36 (3.83)"}
{"CDR-L1": "KLQQQTLYETRNKNSVA", "CDR-L2": "WASTREE", "CDR-L3": "QQYHRLPLS", "group": "GP_HC", "log10 Kd (nM) by replicate": "0.47 0.56 0.14 0.54 0.47 0.64", "log10 Kd (nM), mean": "0.47", "empty controls": "0/18"}
{"CDR-L1": "MITAMLRGVGRDKNSVA", "CDR-L2": "NAQTRED", "CDR-L3": "QHYHRLPLS", "group": "En_HC", "log10 Kd (nM) by replicate": "2.09 nd 2.78 nd 2.23 3.31", "log10 Kd (nM), mean": "2.60", "empty controls": "0/18"}
{"CDR-L1": "MISDLTMYGSRNTNSVA", "CDR-L2": "DLSTRGS", "CDR-L3": "QQYHRLPLS", "group": "En_HC", "log10 Kd (nM) by replicate": "0.58 0.14 -0.05 0.19 0.05 0.47", "log10 Kd (nM), mean": "0.23", "empty controls": "1/18 (2.39)"}
{"CDR-L1": "HITYGMQVAGRHSKSIA", "CDR-L2": "QAEERAH", "CDR-L3": "QQYDRLPLA", "group": "En_Gen", "log10 Kd (nM) by replicate": "1.29 0.66 1.46 0.94 1.16 0.67", "log10 Kd (nM), mean": "1.03", "empty controls": "2/18 (2.02)"}
{"CDR-L1": "VISQSFLIGMKAKNSVA", "CDR-L2": "QTNTREE", "CDR-L3": "QQYDRLPLI", "group": "En_HC", "log10 Kd (nM) by replicate": "0.73 0.44 0.57 0.27 0.52 0.36", "log10 Kd (nM), mean": "0.48", "empty controls": "3/18 (3.02)"}
{"CDR-L1": "IVSQLMLWGMHARNSIA", "CDR-L2": "EAETRLN", "CDR-L3": "QQYERLPLF", "group": "En_Gen", "log10 Kd (nM) by replicate": "nd nd nd nd nd nd", "log10 Kd (nM), mean": "nd", "empty controls": "0/18"}
{"CDR-L1": "KSSQSVLYESRNKYSVA", "CDR-L2": "WASTRES", "CDR-L3": "QQYHRLPLS", "group": "Ctrl", "log10 Kd (nM) by replicate": "1.64 1.73 1.95 1.75 2.84 2.38", "log10 Kd (nM), mean": "2.05", "empty controls": "1/18 (3.60)"}
{"CDR-L1": "KLSPSELYESRQKNSVA", "CDR-L2": "NASLRES", "CDR-L3": "QQYHRLPLS", "group": "GP_Gibbs", "log10 Kd (nM) by replicate": "-0.07 -0.52 -0.22 -0.08 -0.29 0.03", "log10 Kd (nM), mean": "-0.19", "empty controls": "0/18"}
{"CDR-L1": "KCSQAVTYESRNKNSVA", "CDR-L2": "WASTPES", "CDR-L3": "DQYHRLPLE", "group": "Ctrl", "log10 Kd (nM) by replicate": "nd nd nd nd nd nd", "log10 Kd (nM), mean": "nd", "empty controls": "1/18 (0.88)"}

The last 2 entries again:

{"CDR-L1": "KLSPSELYESRQKNSVA", "CDR-L2": "NASLRES", "CDR-L3": "QQYHRLPLS", "group": "GP_Gibbs", "log10 Kd (nM) by replicate": "-0.07 -0.52 -0.22 -0.08 -0.29 0.03", "log10 Kd (nM), mean": "-0.19", "empty controls": "0/18"}
{"CDR-L1": "KCSQAVTYESRNKNSVA", "CDR-L2": "WASTPES", "CDR-L3": "DQYHRLPLE", "group": "Ctrl", "log10 Kd (nM) by replicate": "nd nd nd nd nd nd", "log10 Kd (nM), mean": "nd", "empty controls": "1/18 (0.88)"}

A sequence measured in both rounds can read differently, since the two assays cover different ranges.
In the paper, a design with two or fewer of six values counts as a poor binder.
Where one sequence has several entries in the source, the replicates are listed entry by entry, parted by semicolons.
The parent sequence was in this pool as ten entries: three were never detected, three once, and four in most replicates, with averages from 0.34 to 2.37.
Nonspecific signal, from three strains lacking the peptide, appeared in 4% of pairings of all light chain designs, centred on 2.64 (5% of these signals below 1.59); values are not corrected for it. Also given: how often the same scFv was detected with the empty control strains, with their mean in brackets.

Data: MIT Lincoln Laboratory AlphaSeq set, Li et al. 2023, doi:10.1038/s41467-023-39022-2, as distributed in FLAb.